Values quoted from earlier work in patent US9243032B2, “Compositions for treatment of neurodegenerative diseases” (Ramot at Tel-Aviv University Ltd., priority 2009, dated 2016).

Biological target: alpha-synuclein (Homo sapiens, UniProt P37840)
Conditions: in vitro; Hashimoto et al., Neuron 2001; cited from earlier work

**Q.** With “beta-synuclein: protein product of SNCB gene, 134 amino acids” as the substance, how does the “inhibition of aggregation of alpha-synuclein” value read?
**A.** The value was “inhibit the aggregation of alpha-synuclein in a dose-dependent manner”.
